These are literature values, as cited in patent US12233205B2, “Thermal modulation of an inhalable medicament” (priority 2014, dated 2025).

The conditions of the data set: in vivo, po.

Turning to Acetaminophen/Diphenhydramine, the bioavailability is listed as 65-100%. With Ibuprofen/Diphenhydramine, the bioavailability is 65-100%.
